Measured values taken from ChEMBL document CHEMBL3763133, “4-Arylbenzenesulfonamides as Human Carbonic Anhydrase Inhibitors (hCAIs): Synthesis by Pd Nanocatalyst-Mediated Suzuki-Miyaura Reaction, Enzyme Inhibition, and X-ray Crystallographic Studies” (J Med Chem, 2016).

Target: Carbonic anhydrase 9 (Homo sapiens, UniProt Q16790)
Assay: Inhibition of human carbonic anhydrase 9 incubated for 15 mins prior to testing by CO2 hydration-based stopped flow assay

Structure (SMILES)	Ki
CC(C)c1ccccc1-c1ccc(S(N)(=O)=O)cc1	208 nM
Cc1ccccc1-c1ccc(S(N)(=O)=O)cc1	20.1 nM
